The structures appear in SMILES notation. Only a part is listed here, and it is no random draw. Activity calls are given as the source filed them.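 Rule for the calls: active = mean lysis activity across replicates of at least 80%, whatever share of replicates individually reach that level; inactive = mean lysis activity below 80%.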

This assay is described as follows: Cryptococcus neoformans cell lysis inducers, primary screen, AK release luminescence, single concentration (AID 651654). As to conditions: C. neoformans lysis, adenylate kinase release luminescence, 4 h; at 15 µM; stronger effect = higher value; normalised: neutral wells 0, clomiphene wells 100. The method in brief:
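Signal: Adenylate kinase release luminescence | Assay system: Log-phase Cryptococcus neoformans yeast cells | Input: Cells at 5 × 10^6 per mL | Buffer or medium: Fresh YPD growth medium | Compound: Single dose | Schedule: Static 4 h at 37 °C with compound, 1 h detection | Controls: Clomiphene | Read-out: Luminescence rise reflecting yeast cell lysis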
With `O=P1(Nc2ncccn2)COc2ccccc2OC1`, the lysis activity was inactive: 1.53%.

As to `Cc1ccc(S(=O)(=O)N(CCCN)CCCc2c(C)nc(N)[nH]c2=O)cc1`, the lysis activity is inactive: -1.6%.

Consider `O=P1(Nc2ccc(Br)cn2)COc2ccccc2OC1`, for which the lysis activity is inactive: -9.55%. Regarding `NS(=O)(=O)c1cccc(NC(=O)COC(=O)C(O)(c2ccccc2)c2ccccc2)c1`, the lysis activity was inactive: 0.517%.

`Cc1ccc(OCC(=O)OC2CN3CCC2CC3)cc1` (centres undefined): the lysis activity was inactive: -4.95%. For the compound `O=[As](O)(c1cccs1)c1cccs1`, the lysis activity is inactive: 0.151%. With `Nc1cccc([As](=O)(O)c2ccccc2)c1`, the lysis activity was inactive: 2.53%. Regarding `CC1CCC(C(C)C)C(OP(=O)(Nc2ccccn2)c2ccccc2)C1` (centres undefined), the lysis activity was inactive: 4.36%. The result for `Cc1ccc(C(=O)OC2CN3CCC2CC3)cc1` (centres undefined) reads inactive: 13.2%. For `Cc1nn(-c2ccccc2)c2c1P(=O)(N1CCOCC1)N(C)C(c1ccccc1)=N2` (centres undefined), the lysis activity was inactive: -1.73%. For `CC(C)/C=N\N=C(\N)N[N+](=O)[O-]`, the lysis activity is inactive: -0.628%. Consider `CN(C(=O)Cc1ccc(Cl)c(Cl)c1)[C@@H]1CCCC[C@H]1N1CCCC1`, for which the lysis activity is inactive: 1.33%. Turning to `CN(CCCl)Cc1cc(Cl)c(NC2=NCCN2)c(Cl)c1`, the lysis activity was inactive: -1.63%. As for `CCOP(=O)(NC(=NC(C)c1ccccc1)NC(C)c1ccccc1)OCC` (centres undefined), the lysis activity is inactive: 2.13%.

Regarding `O=P1(Nc2ccccn2)COc2ccccc2OC1`, the lysis activity was inactive: 3.06%. Take `CCC1=CC2Cc3nc4ccc(Cl)cc4c(N)c3C(C1)C2` (centres undefined): the lysis activity is inactive: 5.15%. On to `CC(C)(C)C(=O)NC(Sc1ncccn1)C(Cl)(Cl)Cl` (centres undefined), for which the lysis activity was inactive: -1.31%.

Take `O=P1(N(CCCl)CCCl)NCCC(C(F)(F)F)O1` (centres undefined): the lysis activity is inactive: -0.399%. `Clc1n[nH]nc1-c1nn[nH][15n]1`: the lysis activity is inactive: -0.527%. With `CCCOP(=S)(Nc1nc(N)cc(=O)[nH]1)OCCC` the figure was inactive: -3.84%.

For `Cc1ccc(NCCc2c([N+](=O)[O-])cc([N+](=O)[O-])cc2[N+](=O)[O-])cc1`, the lysis activity was inactive: 0.609%.

With `Nc1cccc2c([As](=O)(O)O)cccc12`, the lysis activity was inactive: -0.901%. Turning to `CS(=O)(=O)c1ccc(Cl)c(NC(=O)COC(=O)C(O)(c2ccccc2)c2ccccc2)c1`, the lysis activity is inactive: 3.23%.

On to `O=[As](O)(O)c1cccnc1`, for which the lysis activity is inactive: 6.29%. Turning to `O=C(OC1CN2CCC1CC2)c1ccc(Cl)cc1` (centres undefined), the lysis activity was inactive: 1.02%. On to `O=[As](O)(c1cccc(O)c1)c1cccc(O)c1`, for which the lysis activity is inactive: 0.51%. The result for `Cc1cccc(OCC(=O)OC2CN3CCC2CC3)c1` (centres undefined) reads inactive: 1.54%; that for `NC(=O)Nc1ccc([As](=O)(O)O)cc1`, inactive: -0.714%. Take `CN(C(=O)Cc1ccc(Cl)c(Cl)c1)[C@H]1CC[C@@]2(CCCO2)C[C@@H]1N1CCCC1`: the lysis activity is inactive: -0.393%. Take `CN(C)C(=O)c1cc([N+](=O)[O-])cc2c1-c1c(cc([N+](=O)[O-])cc1[N+](=O)[O-])C2=O`: the lysis activity is inactive: -6.41%. As for `O=[N+]([O-])c1ccc2c(c1)nnn2O`, the lysis activity was inactive: -0.497%. With `CCOP1(=S)c2c(C)nn(CCC#N)c2N=C(c2ccc(F)cc2)N1C` (centres undefined), the lysis activity was inactive: 0.339%. On to `CN(C(=O)Cc1ccccc1)[C@@H]1CC[C@]2(CCCO2)C[C@H]1N1CCCC1`, for which the lysis activity was inactive: -0.446%. As to `N#CCCN(C(=O)COC(=O)C(O)(c1ccccc1)c1ccccc1)c1ccc(F)cc1`, the lysis activity is inactive: 0.227%. `O=P(Nc1nccs1)(c1ccccc1)c1nc2ccccc2s1` (centres undefined): the lysis activity was inactive: -0.226%. The result for `CCOP1(=S)c2c(C)nn(CCC#N)c2N=C(c2ccccc2F)N1C` (centres undefined) reads inactive: 2.68%; that for `Nc1ccccc1[As](=O)(O)c1ccccc1`, inactive: -0.0235%.

As to `O=C(O)COc1ccc([As](=O)(O)O)cc1[N+](=O)[O-]`, the lysis activity was inactive: 0.37%. Turning to `CC(C)c1ccc(OP(=O)(Nc2ccccn2)Oc2ccccc2F)cc1` (centres undefined), the lysis activity was inactive: 0.363%.

For `ClCCSc1nnc(-c2cccnc2)o1`, the lysis activity was inactive: -0.081%.

`CCN(CC)C(=S)SC(NC=O)C(Cl)(Cl)Cl` (centres undefined): the lysis activity is inactive: 6.44%. In the case of `O=C(OC1CN2CCC1CC2)c1cccc2[nH]cnc12` (centres undefined), the lysis activity is inactive: -2.39%. On to `O=[N+]([O-])c1ccc(-c2cc([N+](=O)[O-])c(O)c([N+](=O)[O-])c2)cc1`, for which the lysis activity was inactive: 15.9%. As to `C[As](=O)(O)c1cccc(C(=O)O)c1`, the lysis activity was inactive: 13.1%.

As to `O=[As](O)(c1ccc(O)cc1)c1ccccc1O`, the lysis activity is inactive: 7.85%. With `Cc1ccc(OP(=O)(Nc2ccc([N+](=O)[O-])cn2)Oc2ccc(C)cc2)cc1` the figure was inactive: 0.84%; with `COc1ccc(N/C(=N/P(=O)(N2CCOCC2)N2CCOCC2)N2CCOCC2)cc1`, inactive: 4.7%. As for `Cc1cc(=O)[nH]c(N[N+](=O)[O-])n1`, the lysis activity is inactive: 3.11%. With `O=C(OC1CN2CCC1CC2)C12CC3CC(CC(C3)C1)C2` (centres undefined) the figure was inactive: -2.23%; with `COc1cc(I)ccc1[As](=O)(O)O`, inactive: 2.05%. Take `COc1ccc(CN2/C(=N\P(=O)(Oc3ccccc3)Oc3ccccc3)Cc3ccccc3C2C2CC2)cc1` (centres undefined): the lysis activity was inactive: -5.23%. On to `O=P1(N(CCCl)CCCl)Nc2ccccc2N1`, for which the lysis activity was inactive: -2.41%. `CCOC(=O)c1ccc(NC(=O)C(C)(CCl)SC)cc1` (centres undefined): the lysis activity was inactive: -2.06%. On to `CSc1ccc(Nc2c([N+](=O)[O-])cc([N+](=O)[O-])cc2[N+](=O)[O-])cc1`, for which the lysis activity is inactive: -0.814%. For `O=C(OC1CN2CCC1CC2)c1cccc([N+](=O)[O-])c1` (centres undefined), the lysis activity is inactive: -1.79%. As for `CCC(C)N(CC(C)C)C(=S)SC(NC(C)=O)C(Cl)(Cl)Cl` (centres undefined), the lysis activity is inactive: 6.9%. As for `COP1(=S)c2c(C)nn(CCC#N)c2N=C(c2ccc(F)cc2)N1C` (centres undefined), the lysis activity is inactive: -4.2%. On to `O=C(Nc1ccncc1[N+](=O)[O-])c1ccc([N+](=O)[O-])cc1[N+](=O)[O-]`, for which the lysis activity is inactive: -1.73%. `O=C(COc1ccccc1)OC1CN2CCC1CC2` (centres undefined): the lysis activity is inactive: -3.41%. Regarding `O=C(O)C(=O)c1ccc(N(CCCl)CCCl)cc1`, the lysis activity was inactive: 0.122%. `CCOC(=O)Nc1cccc([As](=O)(O)O)c1`: the lysis activity is inactive: 0.641%.

`O=[N+]([O-])c1ccc(Nc2ccc(Oc3ccc([N+](=O)[O-])cc3[N+](=O)[O-])cc2)c([N+](=O)[O-])c1`: the lysis activity was inactive: 0.228%. `CC1CCNP(=O)(N(CCCl)CCCl)O1` (centres undefined): the lysis activity was inactive: -0.486%.

Take `CCOC(=O)Nc1ccc([As](=O)(O)O)c(O)c1`: the lysis activity was inactive: -4.27%.

With `O=C(O)C(O)c1ccc(N(CCCl)CCCl)cc1` (centres undefined), the lysis activity is inactive: -2.76%. On to `CCCCOc1ccc(C(=O)NCC2(N3CCCCC3)CCCCC2)cc1OC`, for which the lysis activity is inactive: -2.48%. Turning to `COP(=O)(OC)N1CC1c1ccccc1` (centres undefined), the lysis activity is inactive: -0.165%. Consider `O=[N+]([O-])c1cccc(NC2=NCC(CBr)S2)c1` (centres undefined), for which the lysis activity was inactive: -2.48%. For the compound `O=C(O)CNc1ccc([As](=O)(O)O)cc1`, the lysis activity is inactive: 0.936%.

On to `O=P1(N(CCCl)CCCl)OCCCS1` (centres undefined), for which the lysis activity is inactive: 2.4%.

Take `O=C(Nc1cc([As](=O)(O)O)ccc1O)c1ccccc1`: the lysis activity was inactive: 8.88%. For `C[N+]1=C2C=CC=CC=C2SC12C([N+](=O)[O-])=CC([N+](=O)[O-])=C[C-]2[N+](=O)[O-]` (centres undefined), the lysis activity was inactive: -2.18%.

Turning to `Nc1ccc([As](=O)(O)c2ccc(N)cc2)cc1`, the lysis activity was inactive: 1.41%. Turning to `CC(C)c1nc(Nc2ccccc2)n(P(=O)(N(C)C)N(C)C)n1`, the lysis activity is inactive: 0.403%. With `c1cc(-c2nn[nH]n2)ccc1-c1nn[nH]n1`, the lysis activity was inactive: 0.009%.

As to `CC1CCN(C(=O)Oc2c(Cl)cc(Cl)c3cccnc23)CC1`, the lysis activity is inactive: -0.695%.

For `COc1ccc(C2=NCC(CBr)S2)cc1` (centres undefined), the lysis activity was inactive: 1.9%. The result for `O=[N+]([O-])c1cccc2n[nH]nc12` reads inactive: 1.35%; that for `CC(=O)N1C2C3N(C(C)=O)C1C1N(C(C)=O)C(C(N1C(C)=O)N3C(C)=O)N2C(C)=O`, inactive: -17.6%; that for `CCc1nc2c(n1)c1c(non1O)c1c2no[n+]1[O-]`, inactive: 1.84%. As for `CC(C)CC(=O)NC(Sc1ccc(Cl)cc1)C(Cl)(Cl)Cl` (centres undefined), the lysis activity was inactive: 0.073%. Regarding `O=C(NC(Sc1ccncn1)C(Cl)(Cl)Cl)c1ccccc1` (centres undefined), the lysis activity is inactive: -2.07%. As to `Oc1ccccc1CNc1ccccn1`, the lysis activity is inactive: -0.373%. With `Cc1ccc(N/C(=N/P(=O)(N2CCOCC2)N2CCOCC2)N2CCOCC2)cc1`, the lysis activity was inactive: 4.14%. For the compound `CN(C(=O)Cc1ccc(Cl)c(Cl)c1)[C@H]1CCCC[C@H]1N1CCCC1`, the lysis activity was inactive: 1.19%. Take `Cc1ccc(OP(=O)(Nc2nccs2)Oc2ccc(C)cc2)cc1`: the lysis activity was inactive: 1.83%.

As to `Clc1ccc(Cl)c(NC2=NCC(CBr)S2)c1` (centres undefined), the lysis activity is inactive: 2.69%. In the case of `CN1CCCC(OC(=O)C(c2ccccc2)c2ccccc2)C1` (centres undefined), the lysis activity was inactive: -0.226%. On to `Nc1cccc2ccc([As](=O)(O)O)cc12`, for which the lysis activity was inactive: -1.11%.

Regarding `CCCC1OP(N)(=O)OCC1CC` (centres undefined), the lysis activity was inactive: 6.85%. For the compound `O=C(O)c1ccccc1[As](=O)(O)O`, the lysis activity is inactive: 3.21%. As to `CC(=O)Nc1ccc([As](=O)(O)O)cc1`, the lysis activity is inactive: 2.49%. With `CN(C)P(=O)(N(C)C)n1c(Nc2ccccc2)nnc1-c1ccccc1` the figure was inactive: 1.75%; with `CN(C(=O)Cc1ccc(Cl)c(Cl)c1)[C@H]1CCCC[C@@H]1N1CCCC1`, inactive: 0.131%. Regarding `CCOP(=O)(Nc1ccccc1)OCC`, the lysis activity was inactive: -0.637%.

For the compound `CC(=O)NC(SC(=S)N(CC(C)C)CC(C)C)C(Cl)(Cl)Cl` (centres undefined), the lysis activity is inactive: -2.03%. For `COC(=O)c1cc2c(s1)N=C(c1ccccc1)N(C)P2(=O)N1CCOCC1` (centres undefined), the lysis activity was inactive: -1.12%. Consider `CCC(=O)N1C2C3N(C(=O)CC)C1C1N(C(=O)CC)C(C(N1C(=O)CC)N3C(=O)CC)N2C(=O)CC`, for which the lysis activity was inactive: 3.47%.

Regarding `O=C(OC1CN2CCC1CC2)c1ccccc1` (centres undefined), the lysis activity is inactive: 6.01%.

Values taken from PubChem BioAssay AID651654 (Broad Institute, 2012).
